Measured values: patent US20120301493A1 (UNIVERSIDADE DE SANTIAGO DE COMPOSTELA, published 2012)

Target: T1, human wild type p53 (human, UniProt P04637 1-393)
T1 construct: whole, on cells; also called untagged p53; Intercoil-free p53
Assay: co-expression in Cos-7 cells, immunofluorescence (nuclear inclusions)

B1: NLS-Ag.T-muNS (muNS fused with the NLS of the SV40 T-antigen at its amino end) (other)
chain: PKKKRKVMASTKWGDKPMSVSMSHDGSSIRSAASQFLSGPLFHSTPIPPQRKTVLLKFMIGDELVTVQGALAPFDEYWYDNQPLLAQAVEMLASADRLRQFEHYEKFLLKKGHQITEIMNRLRLFFTDVLKVKMEADALPALAQYLMVGTLEAVSTADSPDACVPVTSKILAKQQTIAKSPGRLDEEEYNVIRSRFLTHEVFDLTSDLPGVQPFMDMYYATVPRADSTGWCVYRRKGLLIHAPDEQFSDLTIFSTRLTASRELQLVAGDVAVACFDLMDVSDIAPSHHASVQEERTLGTSRYSNVTANDHPLVFFSPSALRWAIDHACTDSLVSTRNIRVCVGIDPLVTRWTRDGVQEAAILMDDKLPSAGRARMALRTLLLARRSPMTSFLLGALKQSGGQLMEHYRCDAANRYGSPTVPVSHSPPCSKCPELKEQITKLSSSPLPKIDSNVGPAALLSKIADLQRANRELSLKLVDVQPAREDHLLAYLNEHVCVNAKDHEKGLLSRCNVSGDSISSILGQRVKNRERFETRLRHEASAEWEPRVEALNQELAKARVEQQDMMTQSLQYLNERDELLHEVDELKRELTTLRSANVRLNADNHRMSRATRVGDAFVSDVEPLPSGIPGESKPSMEELVDDL
binding result: no binding
